Read-outs that look alike come from different tables or passages of the source.
Test system: primary human hepatocytes
Protocol: Experimental control culture wells were treated with solvent [DMSO, 0.1% (v/v)] alone. […] The bottoms of the wells were scraped using a pipette tip, after which the contents were transferred to an autosampler vial.
Chromatographic separation was performed on a Shimadzu HPLC system (Shimadzu AG, Reinach, Switzerland), coupled to a triple quadrupole tandem mass spectrometer (API4000 or API5500, AB/MDS Sciex, Concord, Canada), operating in positive electrospray ionization mode.
The CYP activities were determined as the respective metabolite formation rates corresponding to the slope in the metabolite concentration versus time graphs.
For induction experiments, metabolite formation rates were determined as described above, and the fold change versus the basal conditions was calculated as the ratio of the metabolite formation rate in wells exposed to an inducer versus formation rates in control wells.

CO[C@H]1/C=C/O[C@@]2(C)Oc3c(C)c(O)c4c(O)c(c(/C=N/N5CCN(C)CC5)c(O)c4c3C2=O)NC(=O)/C(C)=C\C=C\[C@H](C)[C@H](O)[C@@H](C)[C@@H](O)[C@@H](C)[C@H](OC(C)=O)[C@@H]1C [rifampicin]
increase of α-OH-metoprolol formation: 1.4 factor
increase in conversion of O-demethyl-metoprolol to the phenylacetate metabolite (primary human hepatocytes Lot #Hu8124, rifampicin 20 μM 48 h): 1.6 factor
increase in production of the metoprolol phenylacetate metabolite (primary human hepatocytes treated with rifampicin (Figure 3D, lot #Hu8124)): 57%
increase of α-OH-metoprolol formation (primary human hepatocytes, rifampicin 20 μM 48 h, metoprolol 25 μM): increased

Reference: PMC6066528 (Frontiers in Pharmacology, 2018)
